Reference: patent US20240166755A1, “CHIMERIC ANTIGEN RECEPTORS TARGETING CANCER” (University of Southern California, priority 2016, published 2024)

Assays:
RAJI-GLuc cells = assay: ELISA of IFNγ in supernatant of RAJI-GLuc cells with Blinatumomab and T cells; conditions: Blinatumomab in the presence of T cells
[1] = tested on: Blinatumomab induced cell death of RAJI-GLuc cells mediated by T cells; assay: Blinatumomab-induced, T cell-mediated death of RAJI-GLuc cells and its block by drugs (GLuc assay); type: cell-based, human; conditions: Blinatumomab 100 ng/10^6 cells, T cells E:T 1:1, 96 hours
primary T cells and PBMC = assay: Immortalization: long term proliferation of primary lymphocytes after IL2 withdrawal (Table 26); type: cell-based, human; conditions: for long term proliferation in culture after IL2 withdrawal: PBMC and T cells infected with lentiviral vector, blasticidin selected
Experimental: The nucleotide and protein sequences of K13 are provided in SEQ ID NOs: 866 and 2629, respectively. Approximately 1 day post-infection, cells were selected with blasticidin. After selection, the cells were grown in XVIVO medium and IL2 withdrawn.

“Blinatumomab: bispecific CD19-directed CD3 T cell engager (BiTE) antibody construct” was tested, and the IFNγ production (RAJI-GLuc cells) was “strong induction of IFNγ production” and the “death of RAJI-GLuc cells” value [1] was “strong induction of death”.
“K13-Flag: C-terminal Flag-tagged viral FLICE inhibitory protein K13 of Kaposi's sarcoma associated herpesvirus” was tested, and the “immortalization of primary lymphocytes, T-cells” value (primary T cells and PBMC; CD3+ve T cells infected with lentiviral vector, after IL2 withdrawal) was “+”, the “immortalization of primary lymphocytes, B-cells” value (primary T cells and PBMC; CD3-ve cells (designated B cells) infected with lentiviral vector, after IL2 withdrawal) was “−” and the “long term proliferation in culture after IL2 withdrawal” value (primary T cells and PBMC) was “continued to proliferate in culture long after IL2 withdrawal”. For the same substance, the “immortalization of primary lymphocytes, PBMCs” value (primary T cells and PBMC; PBMCs infected with lentiviral vector, after IL2 withdrawal) was “+”.
For “HTLV1-Tax: HTLV1-encoded Tax protein [reference compound]”, the “long term proliferation in culture after IL2 withdrawal” value (primary T cells and PBMC) was “continued to proliferate in culture long after IL2 withdrawal”.
